Values joined by “and” are separate entries in the source; they are usually repeats but may differ in a detail not shown here. Identical values can stand only once.
Biological target: T1, human recombinant AT2 receptor (Homo sapiens, UniProt P50052)
T1 construct: purchased Eurofins ITEM26 (protocol number)
T1 sequence (P50052 1-363): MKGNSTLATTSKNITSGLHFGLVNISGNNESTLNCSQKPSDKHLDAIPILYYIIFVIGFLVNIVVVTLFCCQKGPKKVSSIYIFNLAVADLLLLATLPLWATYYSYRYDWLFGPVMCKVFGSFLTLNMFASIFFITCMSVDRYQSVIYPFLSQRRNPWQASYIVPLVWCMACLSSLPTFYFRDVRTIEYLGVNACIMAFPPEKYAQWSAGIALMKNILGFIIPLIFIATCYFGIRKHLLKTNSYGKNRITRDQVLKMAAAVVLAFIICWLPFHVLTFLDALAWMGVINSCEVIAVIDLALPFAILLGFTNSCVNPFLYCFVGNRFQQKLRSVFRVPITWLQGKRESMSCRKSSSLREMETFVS
Assay: Binding to AT2 receptor, radiometric scintillation assay (Eurofins ITEM26)
Details: ligand 125I CGP 42112A, * rows = mean of runs

For CC(C)Cc1ccc(S(=O)(=O)Nc2ncc(C#N)cn2)c(-c2ccc(Cn3ccnc3C(C)(C)C)cc2)c1 [Example 6, 4′-((2-(tert-Butyl)-1H-imidazol-1-yl)methyl)-N-(5-cyanopyrimidin-2-yl)-5-isobutyl-[1,1′-biphenyl]-2-sulfonamide], the Ki (seven-point dose-response curve) was 6.17 nM and 4.83 nM and the IC50 (test compounds at 1, 10, 100 and 1000 nM, read-out: AT2 GraFit IC50) was 12.3 nM and 6.96 nM and 9.63 nM.
